Reference: ChEMBL document CHEMBL3414528, “Novel naftopidil-related derivatives and their biological effects as alpha1-adrenoceptors antagonists and antiproliferative agents” (Eur J Med Chem, 2015)

Biological target: T1, Alpha-1A adrenergic receptor (Rattus norvegicus, UniProt P43140)
T1 sequence (P43140 whole entry): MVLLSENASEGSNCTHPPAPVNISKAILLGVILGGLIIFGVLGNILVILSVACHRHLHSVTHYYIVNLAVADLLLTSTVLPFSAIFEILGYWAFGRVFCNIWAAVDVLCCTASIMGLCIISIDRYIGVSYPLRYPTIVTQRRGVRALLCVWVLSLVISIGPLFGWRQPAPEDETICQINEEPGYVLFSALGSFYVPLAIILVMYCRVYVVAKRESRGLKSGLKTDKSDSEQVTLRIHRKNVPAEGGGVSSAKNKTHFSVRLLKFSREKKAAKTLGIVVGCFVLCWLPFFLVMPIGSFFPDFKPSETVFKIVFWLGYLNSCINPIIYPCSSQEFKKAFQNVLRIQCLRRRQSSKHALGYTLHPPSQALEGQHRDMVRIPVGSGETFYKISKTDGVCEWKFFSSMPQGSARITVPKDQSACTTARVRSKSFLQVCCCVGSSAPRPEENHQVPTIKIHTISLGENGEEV
Test: Antagonist activity at Sprague-Dawley rat prostatic vas deferens adrenergic alpha-1A receptor after 20 mins
Details: read-out: pA2 (converted)
Outline: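 Isolated rat tissues (prostatic vas deferens, spleen, thoracic aorta) contracted with cumulative norepinephrine; concentration-response curves recorded in presence of increasing antagonist concentrations, antagonism read as rightward curve shift. Mean ± SEM of five to eight separate experiments.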

Kb: 12.6 nM
Structure (SMILES): COc1cc2nc(N3CCN(C(=O)C4CCCO4)CC3)nc(N)c2cc1OC (stereo unspecified) [TERAZOSIN]
